Experiments:
[1] = target: T1, microbial transglutaminase (mTG) (Streptomyces mobaraensis, UniProt P81453); experiment: mTG-mediated incorporation of biotin-X-cadaverine into peptides coupled on Covabtest plate; type: biochemical; details: 15 nmoles peptide coupled to plate, biot-cad 0.1 mg/ml, mTG 10 ng/well
T1 construct: purchased Covalab, France opr 0054
T1 sequence (P81453 77-407): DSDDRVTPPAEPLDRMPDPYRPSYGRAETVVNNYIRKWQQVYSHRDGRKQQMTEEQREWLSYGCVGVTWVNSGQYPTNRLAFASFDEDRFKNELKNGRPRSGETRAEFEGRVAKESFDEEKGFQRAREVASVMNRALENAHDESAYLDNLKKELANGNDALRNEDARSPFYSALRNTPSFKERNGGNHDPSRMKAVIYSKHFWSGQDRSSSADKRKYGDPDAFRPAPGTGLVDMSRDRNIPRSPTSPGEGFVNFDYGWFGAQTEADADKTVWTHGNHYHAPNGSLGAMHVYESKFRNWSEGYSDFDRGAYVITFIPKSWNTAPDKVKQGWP
Method: The coupling method was previously described by the Applicant (V. Thomas et al, 2004) and also in the corresponding data sheet of CovAbtest-Plate™ which is commercially available from Covalab (Ref #opr0004). Briefly, in separate tubes a solution mixture containing 150 μM of each peptide dissolved in 10 mM phosphate buffer pH5, 5 mM EDAC and 5 mM NHS was incubated for 30 min under gentle shaking. The resulting activated NHS-carboxyl C-terminal moiety of each peptide (15 nmoles) was used to be conjugated in each well of CovAbtest-Plate™ previously deprotonated during 15 min with 150 μl 0.6% sodium bicarbonate per well. […]
For this experiment we used the same procedures described by V Thomas et all (2004) and also in the Covalab's commercialized kit (opr0033). […] Absorbances at 450 nm were measured using a microplate reader (Multiskan, Labsystems, Helsinki, Finland).
To screen the peptide library (Covalab) and identify the putative new substrates of mTG we used Covabtest-peptide (described in B-I-1) in which the peptides were covalently coupled into the plates and the amine substrate Biotin-cadeverine (biot-cad) was free in solution. In this experiment 15 nmoles of each peptide (table 2) were covalently conjugated to microtiter plate and the incorporation of biot-cad (0.1 mg/ml) catalyzed by mTG (10 ng/well) was determined following the experiment described in B-II-1. […]

[2] = target: T2, human transglutaminase 2 (hTG2) (Homo sapiens, UniProt P21980); experiment: TG2-mediated incorporation of biotin-cadaverine into peptides coupled on Covabtest plate; type: biochemical; details: same conditions as for mTG
T2 construct: purchased Covalab, France opr 0027
T2 sequence (P21980 1-687): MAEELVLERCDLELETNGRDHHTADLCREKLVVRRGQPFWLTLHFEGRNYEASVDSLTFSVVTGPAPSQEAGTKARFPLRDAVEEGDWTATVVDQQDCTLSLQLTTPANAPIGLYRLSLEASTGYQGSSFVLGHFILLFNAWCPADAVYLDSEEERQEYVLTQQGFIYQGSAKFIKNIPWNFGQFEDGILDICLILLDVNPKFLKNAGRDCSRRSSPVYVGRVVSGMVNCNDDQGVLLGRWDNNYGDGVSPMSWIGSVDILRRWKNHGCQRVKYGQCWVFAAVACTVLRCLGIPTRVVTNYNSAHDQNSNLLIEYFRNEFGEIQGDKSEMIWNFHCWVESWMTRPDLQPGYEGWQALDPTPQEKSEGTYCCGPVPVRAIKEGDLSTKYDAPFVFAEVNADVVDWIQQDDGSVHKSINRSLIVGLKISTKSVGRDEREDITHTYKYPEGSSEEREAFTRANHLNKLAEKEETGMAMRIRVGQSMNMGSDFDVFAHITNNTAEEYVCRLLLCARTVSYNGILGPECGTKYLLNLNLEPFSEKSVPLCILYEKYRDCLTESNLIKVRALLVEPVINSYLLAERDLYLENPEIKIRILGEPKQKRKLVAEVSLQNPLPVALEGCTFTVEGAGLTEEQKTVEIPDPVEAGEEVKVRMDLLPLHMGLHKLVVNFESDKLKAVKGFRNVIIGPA
Method: The coupling method was previously described by the Applicant (V. Thomas et al, 2004) and also in the corresponding data sheet of CovAbtest-Plate™ which is commercially available from Covalab (Ref #opr0004). Briefly, in separate tubes a solution mixture containing 150 μM of each peptide dissolved in 10 mM phosphate buffer pH5, 5 mM EDAC and 5 mM NHS was incubated for 30 min under gentle shaking. The resulting activated NHS-carboxyl C-terminal moiety of each peptide (15 nmoles) was used to be conjugated in each well of CovAbtest-Plate™ previously deprotonated during 15 min with 150 μl 0.6% sodium bicarbonate per well. The microtiter plate was then incubated during 2 hrs at room temperature and washed extensively with Tris Buffer Saline.
For this experiment we used the same procedures described by V Thomas et all (2004) and also in the Covalab's commercialized kit (opr0033). Briefly the Lyophilized transglutaminase was reconstituted in 40 mM tris buffer pH 8 and 50 μl of each mTG at 200 ng/ml and at 40 ng/ml were added in the wells containing 50 μl of biotin-X-cadaverine. The enzymatic mixture was incubated for 15 min at room temperature under gentle shaking. […] Absorbances at 450 nm were measured using a microplate reader (Multiskan, Labsystems, Helsinki, Finland). […]

Z-Q-G (QG) [TGpan, peptide known to be good substrate for transglutaminases, reference compound]
reactivity as Gln donor for mTG incorporation of biot-cad [1]: low reactivity | reactivity as substrate for TG2 incorporation of biot-cad [2]: good substrate for TG2
